Data published in patent US20190000850A1, “COMBINATION CANCER THERAPY” (The Regents of the University of California, priority 2015, published 2019).

Sequences of proteins named here, by UniProt entry; tags and fusion partners are left off.
UniProt O14757, whole entry: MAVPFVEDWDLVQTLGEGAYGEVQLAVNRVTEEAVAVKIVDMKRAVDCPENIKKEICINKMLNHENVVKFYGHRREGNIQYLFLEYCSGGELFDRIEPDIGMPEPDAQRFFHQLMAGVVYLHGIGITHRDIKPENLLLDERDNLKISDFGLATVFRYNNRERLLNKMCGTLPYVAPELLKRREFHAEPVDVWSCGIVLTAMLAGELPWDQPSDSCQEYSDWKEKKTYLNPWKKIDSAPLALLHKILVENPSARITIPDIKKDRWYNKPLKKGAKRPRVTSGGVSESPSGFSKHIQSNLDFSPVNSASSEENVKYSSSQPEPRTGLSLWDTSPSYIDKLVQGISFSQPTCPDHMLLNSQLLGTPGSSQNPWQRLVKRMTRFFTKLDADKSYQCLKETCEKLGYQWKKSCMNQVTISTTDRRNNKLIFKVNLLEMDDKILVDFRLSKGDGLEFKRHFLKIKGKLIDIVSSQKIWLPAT
UniProt P27707, whole entry: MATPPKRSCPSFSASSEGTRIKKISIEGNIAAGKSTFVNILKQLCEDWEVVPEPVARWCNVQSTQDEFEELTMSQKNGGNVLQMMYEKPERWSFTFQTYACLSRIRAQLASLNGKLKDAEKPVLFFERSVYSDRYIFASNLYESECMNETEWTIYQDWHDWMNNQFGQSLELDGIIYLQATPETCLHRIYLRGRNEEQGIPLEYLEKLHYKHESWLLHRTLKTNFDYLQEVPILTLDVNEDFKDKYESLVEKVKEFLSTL

Tests used:
[1] = biological target: Chk1 (Homo sapiens, UniProt O14757); conditions: read-out: IC50 against primary target (Chk1); cited from earlier work
[2] = biological target: dCK (Homo sapiens, UniProt P27707); assay: IC50 (cytotoxicity assay) of dCK inhibitors, Table 2; assay type: cell-based; conditions: read-out: IC50 (cytotoxicity assay)

SMILES	IC50 [1]	IC50 [2]
Oc1ccc(-c2ccc(-c3cc(Nc4cccc(CNC5CC5)c4)n[nH]3)cc2)c(O)c1	125 to 550 nM	
Nc1nc(=O)n([C@H]2CC[C@H](NC(=O)c3cc(-c4cc5ccccc5s4)ccn3)C2)cc1F		450 nM
